Entries after “also recorded” stand apart in the source; their conditions may differ.
Experiments:
[1] = literature case reports; cited from earlier work
PIGA null TF-1 cells = assay: Modified Ham (mHam) assay, complement-dependent cell killing; format: cell-based, human; details: anti-C5 mAb 10 μg, ACH-4471 0.33 μM; for Inhibition of mHam cell killing induced by CAPS sera: CAPS patient sera
Description: (§1) Patient derived anti-β2GPI antibodies. Anti-β2GPI antibodies from two patients were affinity purified using a column of Affigel HZ to which purified human β2GPI was coupled (Bio-Rad Laboratories, Hercules, Calif.), as previously described.^43 IgG purity was assessed by reduced SDS-PAGE. Complement activation (C5b-9 deposition and complement dependent cell killing in mHam) induced by patient-derived anti-β2GPI antibodies was tested by adding patient-derived anti-β2GPI antibodies to normal human serum (Cat. NHS, Complement Technology, Inc.).
Modified Ham assay. The mHam assay has been validated to assess complement activation in patient serum and was performed as described previously.^42,44 Briefly, PIGA null TF-1 cells were plated in 96-well plates at a density of 6700 cells/well and cultured until confluent. Briefly, PIGA null TF-1 cells were plated in 96-well plates in gelatin veronal buffer with Ca and Mg (GVB^++) (Cat. B102, Complement Technology, Inc.) at a density of 6,700 cells/well. Test serum (20 μL at 1:5 dilution) was added to cells and incubated at 37° C. for 45 minutes with constant shaking. After incubation, cells were again washed with phosphate buffered saline and incubated with the cell proliferation reagent, 4-[3-(4-lodophenyl)-2-(4-nitrophenyl)-2H-5-tetrazolio]-1.3-benzene disulfonate/WST-1 (Roche, Switzerland) at dilution 1:10 for 2 hours at 37° C. Absorbance was measured in a plate reader (ELX808, BioTeK, Winooski, Vt.) at 450 nm with a reference wave length at 630 nm. The colorimetric assay is based on cleavage of the tetrazolium salt, WST-1, by mitochondrial dehydrogenases in viable cells. The percentage of live cells was calculated as the ratio of absorbance of the sample to its heat inactivated control multiplied by 100. The percentage of non-viable cells (100−percentage viable cells) is a measure of complement activation. Based on prior experiments, 20% non-viable cells (cell killing) is established as the threshold for a positive test.^42,44 All assays were performed in triplicate for replication.
As a positive control for the mHam, Shiga toxin^45 (Cat. SML0562, Sigma-Aldrich, St. Louis, Mo.) 10 μg/mL was added to NHS and incubated at 37° C. for 15 minutes, followed by the addition of the cells. Heat-inactivated serum was used an internal negative control for each sample. To confirm complement dependence of cell killing, the mHam was performed after adding an anti-β5 monoclonal antibody (10 μg) (Alexion pharmaceuticals). The assays were also performed with a small molecule factor D inhibitor^46 (0.33 μM) (ACH-4471, Achillion Pharmaceuticals) to evaluate the contribution of the alternative versus classical/lectin pathways.

[2] = Eculizumab treatment of patients with CAPS / thrombotic APS; format: in vivo, human; details: CAPS patient; acute renal failure, cardiac injury, thrombocytopenia within 2 weeks of renal transplant
[3] = system: C5b-9 deposition on PIGA null TF-1 cells; assay: Flow cytometry for C5b-9 deposition; format: cell-based, human; details: for Inhibition of C5b-9 deposition induced by APS patient sera: APS patient sera on PIGA null TF-1 cells; for Inhibition of C5b-9 deposition induced by CAPS sera: CAPS patient sera (e.g. CAPS5); for Inhibition of C5b-9 deposition induced by patient-derived IgG anti-β2GPI antibody: anti-β2GPI from thrombotic APS patient APS21 added to normal human serum
Description: as §1
Flow cytometry for C5b-9 deposition. Flow cytometry was performed to evaluate cell surface deposition of C5b-9 deposition on PIGA null TF1 cells. Cells were seeded in V-bottom 96-well plates (1.2×10^5 cells/well) either in GVB^0.MgEGTA (pH 6.4) buffer for alternative pathway activation or GVB++ (pH 7.4) buffer for classical pathway activation followed by addition of APS patient serum (or patient-derived aPL added to normal human serum). The reaction was incubated for 15 min at 37° C., and stopped by adding FACS buffer/EDTA. Cell pellets were separated by centrifugation at 1900 rpm for 3 minutes at room temperature and then stained with Alexa 488 conjugated anti-C3c antibody (Cat. 4212, Abcam, dilution at 1:100) and […] monoclonal primary antibody (Cat. 66768, Abcam, dilution at 1:100), followed by Alexa 647 conjugated secondary antibody. C5b-9 deposition was measured by a BD FACSCalibur. Ten thousand events were recorded per sample and analyzed using FlowJo software version 10.5.3 (FlowJo Inc). Normal human serum was used as a negative control for flow cytometry assays. We also evaluated the effect of adding anti-C5 mAb and ACH-4471 on C5b-9 deposition.

[4] = listed as anti-β5 monoclonal antibody

B1: eculizumab (antibody, chains of the INN, looked up)
heavy: QVQLVQSGAEVKKPGASVKVSCKASGYIFSNYWIQWVRQAPGQGLEWMGEILPGSGSTEYTENFKDRVTMTRDTSTSTVYMELSSLRSEDTAVYYCARYFFGSSPNWYFDVWGQGTLVTVSSASTKGPSVFPLAPCSRSTSESTAALGCLVKDYFPEPVTVSWNSGALTSGVHTFPAVLQSSGLYSLSSVVTVPSSNFGTQTYTCNVDHKPSNTKVDKTVERKCCVECPPCPAPPVAGPSVFLFPPKPKDTLMISRTPEVTCVVVDVSQEDPEVQFNWYVDGVEVHNAKTKPREEQFNSTYRVVSVLTVLHQDWLNGKEYKCKVSNKGLPSSIEKTISKAKGQPREPQVYTLPPSQEEMTKNQVSLTCLVKGFYPSDIAVEWESNGQPENNYKTTPPVLDSDGSFFLYSRLTVDKSRWQEGNVFSCSVMHEALHNHYTQKSLSLSLG
light: DIQMTQSPSSLSASVGDRVTITCGASENIYGALNWYQQKPGKAPKLLIYGATNLADGVPSRFSGSGSGTDFTLTISSLQPEDFATYYCQNVLNTPLTFGQGTKVEIKRTVAAPSVFIFPPSDEQLKSGTASVVCLLNNFYPREAKVQWKVDNALQSGNSQESVTEQDSKDSTYSLSSTLTLSKADYEKHKVYACEVTHQGLSSPVTKSFNRGEC
[1]
  Reported clinical efficacy of eculizumab in CAPS and refractory thrombotic APS: efficacy; also recorded: responded to treatment; also recorded: successful use
PIGA null TF-1 cells; APS patient sera
  Inhibition of cell killing in the mHam induced by APS sera: blocked
PIGA null TF-1 cells
  Inhibition of mHam cell killing induced by CAPS sera: attenuated
PIGA null TF-1 cells; listed as anti-CS antibody
  Inhibition of mHam cell killing induced by CAPS sera: more so
PIGA null TF-1 cells; [4]
  Inhibition of mHam cell killing induced by CAPS sera: completely blocked
[2]
  Clinical outcome of eculizumab treatment: successfully treated
[3]
  Inhibition of C5b-9 deposition induced by APS patient sera: completely blocked
  Inhibition of C5b-9 deposition induced by CAPS sera: blocked
  Inhibition of C5b-9 deposition induced by patient-derived IgG anti-β2GPI antibody: blocked completely
[3]; listed as anti-CS antibody
  Inhibition of C5b-9 deposition induced by APS patient sera: blocked
  Inhibition of C5b-9 deposition induced by CAPS sera: more so
[3]; listed as anti-β5 antibody
  Inhibition of C5b-9 deposition induced by APS patient sera: inhibited
[3]; [4]
  Inhibition of C5b-9 deposition induced by CAPS sera: completely blocked
[3]; listed as anti-β5 monoclonal Ab
  Inhibition of C5b-9 deposition induced by patient-derived IgG anti-β2GPI antibody: inhibited
